A value given as a limit tells only on which side of the number the result lay.

By UniProt entry, the sequences of proteins in these tests, tags left out.
UniProt P01116, whole entry G12D: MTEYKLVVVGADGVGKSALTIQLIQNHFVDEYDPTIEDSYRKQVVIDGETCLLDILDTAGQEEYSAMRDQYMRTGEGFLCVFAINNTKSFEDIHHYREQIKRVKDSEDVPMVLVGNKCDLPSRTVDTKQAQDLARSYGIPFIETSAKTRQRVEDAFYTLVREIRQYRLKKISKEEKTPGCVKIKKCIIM

This assay addresses Ba/F3_KRAS^G12D cells (Homo sapiens, UniProt P01116, G12D, cells depend on it). Kind of assay: Ba/F3 KRAS G12D cell proliferation assay (CellTiter-Glo). As to conditions: read-out: BaF3_KRAS^G12D IC50, treated for 3 days, cell-titer Glo, cell growth inhibition, tested form: 3TFA. (In general: Cellular ATP, detected with luciferase, serves as a proxy for viable cell number.)

For the compound `C#Cc1c(F)ccc2cc(O)cc(-c3c(C#N)cc4c(N5CC6CCC(C5)N6)nc(OC[C@@]56CCCN5C[C@H](F)C6)nc4c3F)c12` (single isomer, unassigned), the GI50 was less than 0.5 µM.

Values taken from patent US20230242544A1, “QUINAZOLINE COMPOUNDS, PREPARATION METHODS AND USES THEREOF” (INVENTISBIO CO., LTD., priority 2020, published 2023).
